Experimental data reported in ChEMBL document CHEMBL1955771, “VX-322: a novel dual receptor tyrosine kinase inhibitor for the treatment of acute myelogenous leukemia” (J Med Chem, 2012).

By UniProt entry, the sequences of proteins in these tests, tags left out. Where a name states a change or a piece, a line headed by the entry shows the natural chain unless it says otherwise.
UniProt P22607, whole entry: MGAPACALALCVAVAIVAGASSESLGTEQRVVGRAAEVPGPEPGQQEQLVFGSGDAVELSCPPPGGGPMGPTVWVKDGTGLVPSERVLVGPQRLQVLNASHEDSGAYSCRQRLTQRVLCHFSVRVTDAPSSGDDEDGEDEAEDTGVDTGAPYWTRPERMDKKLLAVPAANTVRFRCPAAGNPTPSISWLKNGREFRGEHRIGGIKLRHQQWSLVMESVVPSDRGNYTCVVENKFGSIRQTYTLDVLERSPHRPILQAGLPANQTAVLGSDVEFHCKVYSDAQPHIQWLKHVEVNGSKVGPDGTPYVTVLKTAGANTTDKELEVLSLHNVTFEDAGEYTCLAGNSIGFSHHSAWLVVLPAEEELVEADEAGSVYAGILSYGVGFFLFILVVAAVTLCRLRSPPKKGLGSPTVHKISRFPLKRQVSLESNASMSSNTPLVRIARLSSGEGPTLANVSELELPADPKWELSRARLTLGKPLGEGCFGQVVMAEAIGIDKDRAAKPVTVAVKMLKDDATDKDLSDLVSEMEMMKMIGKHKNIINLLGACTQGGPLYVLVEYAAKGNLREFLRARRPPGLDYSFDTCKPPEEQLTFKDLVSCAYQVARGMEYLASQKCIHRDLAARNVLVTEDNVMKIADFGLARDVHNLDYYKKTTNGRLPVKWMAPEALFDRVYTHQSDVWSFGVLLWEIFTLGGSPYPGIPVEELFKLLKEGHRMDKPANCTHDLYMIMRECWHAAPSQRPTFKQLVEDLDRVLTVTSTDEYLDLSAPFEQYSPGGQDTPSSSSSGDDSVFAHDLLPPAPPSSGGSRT
UniProt Q02763: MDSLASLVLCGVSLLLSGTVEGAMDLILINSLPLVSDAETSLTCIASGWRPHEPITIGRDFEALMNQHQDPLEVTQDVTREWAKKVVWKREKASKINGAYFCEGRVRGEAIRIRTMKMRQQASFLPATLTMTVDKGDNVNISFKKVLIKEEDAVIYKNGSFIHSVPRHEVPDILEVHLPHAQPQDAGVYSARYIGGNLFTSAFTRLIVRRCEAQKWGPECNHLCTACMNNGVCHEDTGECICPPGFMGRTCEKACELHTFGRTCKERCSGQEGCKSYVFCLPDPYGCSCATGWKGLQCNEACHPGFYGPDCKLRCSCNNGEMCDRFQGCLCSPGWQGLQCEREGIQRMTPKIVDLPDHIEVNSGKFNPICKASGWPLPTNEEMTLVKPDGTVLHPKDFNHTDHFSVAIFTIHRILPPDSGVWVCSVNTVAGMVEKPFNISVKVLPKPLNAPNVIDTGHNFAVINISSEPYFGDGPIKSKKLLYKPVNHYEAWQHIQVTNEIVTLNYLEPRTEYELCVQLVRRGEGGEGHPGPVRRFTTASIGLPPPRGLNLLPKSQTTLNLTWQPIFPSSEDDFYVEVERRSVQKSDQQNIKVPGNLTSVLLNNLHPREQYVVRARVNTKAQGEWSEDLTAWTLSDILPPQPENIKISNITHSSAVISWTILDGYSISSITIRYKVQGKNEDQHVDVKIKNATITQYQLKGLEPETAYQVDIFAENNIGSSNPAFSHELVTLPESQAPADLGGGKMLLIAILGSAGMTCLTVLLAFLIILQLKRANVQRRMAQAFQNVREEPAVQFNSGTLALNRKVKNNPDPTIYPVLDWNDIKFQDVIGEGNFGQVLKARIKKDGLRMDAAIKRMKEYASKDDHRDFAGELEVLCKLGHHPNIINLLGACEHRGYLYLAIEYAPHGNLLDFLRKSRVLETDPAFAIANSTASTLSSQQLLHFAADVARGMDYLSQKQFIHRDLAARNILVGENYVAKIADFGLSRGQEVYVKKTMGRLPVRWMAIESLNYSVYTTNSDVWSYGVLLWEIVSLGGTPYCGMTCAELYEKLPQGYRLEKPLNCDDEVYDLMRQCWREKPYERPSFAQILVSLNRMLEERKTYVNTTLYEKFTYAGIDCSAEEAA
UniProt P00519, whole entry: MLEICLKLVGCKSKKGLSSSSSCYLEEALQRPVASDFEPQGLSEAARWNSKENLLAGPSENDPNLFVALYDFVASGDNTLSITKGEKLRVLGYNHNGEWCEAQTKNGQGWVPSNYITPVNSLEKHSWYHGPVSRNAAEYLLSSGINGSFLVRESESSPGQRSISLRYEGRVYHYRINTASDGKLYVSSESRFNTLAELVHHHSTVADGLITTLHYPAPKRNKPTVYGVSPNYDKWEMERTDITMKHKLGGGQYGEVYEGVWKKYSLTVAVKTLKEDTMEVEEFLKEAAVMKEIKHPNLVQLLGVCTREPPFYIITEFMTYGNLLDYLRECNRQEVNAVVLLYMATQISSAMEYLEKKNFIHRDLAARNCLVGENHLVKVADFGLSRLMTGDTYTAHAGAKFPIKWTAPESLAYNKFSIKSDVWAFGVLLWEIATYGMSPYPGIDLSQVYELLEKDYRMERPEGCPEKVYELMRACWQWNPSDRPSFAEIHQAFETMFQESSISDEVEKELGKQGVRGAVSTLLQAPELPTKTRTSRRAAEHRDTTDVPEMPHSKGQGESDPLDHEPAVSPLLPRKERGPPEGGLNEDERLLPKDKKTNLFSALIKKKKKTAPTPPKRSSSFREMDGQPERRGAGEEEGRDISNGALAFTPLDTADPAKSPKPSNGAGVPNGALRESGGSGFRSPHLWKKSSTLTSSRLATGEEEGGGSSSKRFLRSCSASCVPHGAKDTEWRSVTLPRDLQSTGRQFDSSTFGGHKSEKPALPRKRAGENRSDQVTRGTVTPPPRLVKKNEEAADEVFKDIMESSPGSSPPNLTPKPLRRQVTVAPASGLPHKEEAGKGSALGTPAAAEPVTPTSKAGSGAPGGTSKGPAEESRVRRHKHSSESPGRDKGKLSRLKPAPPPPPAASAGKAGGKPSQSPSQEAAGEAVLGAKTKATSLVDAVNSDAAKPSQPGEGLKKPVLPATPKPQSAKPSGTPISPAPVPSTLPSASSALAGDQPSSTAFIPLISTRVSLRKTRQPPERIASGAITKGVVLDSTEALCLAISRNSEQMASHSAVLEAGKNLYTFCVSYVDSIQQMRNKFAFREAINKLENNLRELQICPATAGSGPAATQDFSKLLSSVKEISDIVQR

Experiments:
[1] = target: Fibroblast growth factor receptor 3 (Homo sapiens, UniProt P22607); experiment: Inhibition of FGFR3
[2] = target: Angiopoietin-1 receptor (Homo sapiens, UniProt Q02763); experiment: Inhibition of Tie2
[3] = target: Tyrosine-protein kinase ABL1 (Homo sapiens, UniProt P00519); experiment: Inhibition of ABL

Work on Nc1nc(Nc2ccc([C@H]3CC[C@H](N4CCOCC4)CC3)cc2)nn1-c1ccccn1 yielded a Ki [1] of 400 nM, a Ki [2] of 200 nM and a Ki [3] of 400 nM.
